This is a selection; strong and weak results do not stand in their true shares. Results filed as inconclusive are left out. Calls of active or inactive are those of the source. The call rests on the fitted dose curve; in most records, active means well fitted inhibition curve with a large enough effect; inconclusive means small, poorly fitted or top-dose-only effect; inactive means no such curve, though single readings can be large or run the other way.

Amino acid sequences for entries named in this document (tags omitted).
UniProt P83916, whole entry: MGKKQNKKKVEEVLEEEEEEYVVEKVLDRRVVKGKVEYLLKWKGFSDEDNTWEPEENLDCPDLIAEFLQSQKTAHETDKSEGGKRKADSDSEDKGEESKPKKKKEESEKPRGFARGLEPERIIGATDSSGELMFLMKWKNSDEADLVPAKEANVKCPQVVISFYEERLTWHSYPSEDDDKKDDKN

This experiment deals with Chromobox protein homolog 1 (Homo sapiens) (UniProt P83916). Description: HTS for Inhibitors of HP1-beta Chromodomain Interactions with Methylated Histone Tails. Further: nearly all actives have a fitted effect of over 70% in size. The following applies: AlphaScreen HP1-beta / biotin-H3K9me3 peptide binding; at 114 µM (top of the series).
For the molecule `CN(C)CCOC(=O)C(O)(c1ccccc1)C1CCCC1` (stereo not drawn), the activity change, negative = inhibition was inactive: 28.1%.

Turning to `COc1ccc(OP(C)(=O)Nc2ccccn2)cc1` (stereo not drawn), the activity change, negative = inhibition was inactive: 47.3%.

Take `COc1ccccc1OP(C)(=O)Nc1ccc(Br)cc1` (stereo not drawn): the activity change, negative = inhibition is inactive: 14.1%.

As to `CCc1ccc(OP(C)(=O)O)cc1`, the activity change, negative = inhibition was inactive: 5.5%.

`COc1ccccc1OP(C)(=O)Nc1ccc(C)cc1C` (stereo not drawn): the activity change, negative = inhibition was inactive: 18.3%.

Take `CP(=O)(Nc1ccccn1)Oc1ccccc1` (stereo not drawn): the activity change, negative = inhibition is inactive: 16.7%.

For `Cc1c(NP(C)(=O)Oc2ccc(C(C)C)cc2)c(=O)n(-c2ccccc2)n1C` (stereo not drawn), the activity change, negative = inhibition is inactive: 26.8%.

For the molecule `COc1ccc(OP(C)(=O)Nc2ccccc2Br)cc1` (stereo not drawn), the activity change, negative = inhibition is inactive: 24.3%.

`COc1ccccc1OP(C)(=O)Nc1ccc(C)c(C)c1` (stereo not drawn): the activity change, negative = inhibition was inactive: 3.82%.

As for `Cc1cc(C)cc(OP(C)(=O)Nc2cccc(C(F)(F)F)c2)c1` (stereo not drawn), the activity change, negative = inhibition was inactive: 41.8%.

For `CP(=O)(Nc1ccc(Cl)cc1Cl)Oc1ccccc1` (stereo not drawn), the activity change, negative = inhibition is inactive: 42%.

Consider `CCCCCCCCCCCCCCCC1C[N+](C)(C)CCOP(C)(=O)O1` (stereo not drawn), for which the activity change, negative = inhibition is inactive: 12.1%.

Consider `CP(=O)(OCCOc1ccccc1)OCCOc1ccccc1`, for which the activity change, negative = inhibition is inactive: 40.4%.

Turning to `CP(=O)(OC12CC3CC(CC(C3)C1)C2)OC12CC3CC(CC(C3)C1)C2`, the activity change, negative = inhibition was inactive: 17.9%.

For `CCOC(=O)c1ccc(NP(C)(=O)Oc2ccc(Cl)cc2)cc1` (stereo not drawn), the activity change, negative = inhibition was inactive: 39.8%.

As to `Nc1ccc2c(ccc3cccnc32)n1.O=[N+]([O-])c1cc([N+](=O)[O-])c(O)c([N+](=O)[O-])c1`, the activity change, negative = inhibition was inactive: 22.7%.

As for `CCc1ccc(OP(C)(=O)Nc2cccnc2)cc1` (stereo not drawn), the activity change, negative = inhibition is inactive: 34.3%.

As to `CP(=O)(Oc1ccccc1)N1CCOC1=O` (stereo not drawn), the activity change, negative = inhibition is inactive: 43.3%.

On to `O=C(OCCCN1CCCC1)C(O)(c1ccccc1)C1CCCCC1` (stereo not drawn), for which the activity change, negative = inhibition is inactive: 25.1%.

With `COc1ccccc1OP(C)(=O)Nc1c(C)n(C)n(-c2ccccc2)c1=O` (stereo not drawn), the activity change, negative = inhibition is inactive: 32.1%.

`COc1ccc(OP(C)(=O)Nc2ccc(Br)cc2)cc1` (stereo not drawn): the activity change, negative = inhibition is inactive: 29.6%.

As to `CCN(CC)CC(O)COC(=O)C(O)(c1ccccc1)C1CCCCC1` (stereo not drawn), the activity change, negative = inhibition is inactive: 28.4%.

For `CN(C)C(=O)c1c([N+](=O)[O-])cc([N+](=O)[O-])cc1[N+](=O)[O-]`, the activity change, negative = inhibition was inactive: 76.5%.

Take `CP(=O)(Nc1ccc(Cl)cc1)Oc1ccc(F)cc1` (stereo not drawn): the activity change, negative = inhibition is inactive: 26.9%.

On to `COc1ccccc1OP(C)(=O)Nc1ccccc1Br` (stereo not drawn), for which the activity change, negative = inhibition was inactive: 21.5%.

Consider `CC(C)(C)c1ccc(OP(C)(=O)O)cc1`, for which the activity change, negative = inhibition was inactive: 35.2%.

As to `CCOP(C)(=S)SCC(=O)NC(C)(CC)C(=O)O` (stereo not drawn), the activity change, negative = inhibition is inactive: 46.1%.

Consider `CP(=O)(Nc1ccc(SC(F)(F)F)cc1)Oc1ccc(F)cc1` (stereo not drawn), for which the activity change, negative = inhibition was inactive: 45%.

Consider `Cc1ccccc1NP(C)(=O)Nc1ccccc1C`, for which the activity change, negative = inhibition is inactive: 28.4%.

`CP(=O)(Nc1ccc2c(c1)OCCO2)Oc1ccccc1` (stereo not drawn): the activity change, negative = inhibition was inactive: 1.55%.

`COc1ccc(NP(C)(=O)Oc2ccccc2OC)cc1` (stereo not drawn): the activity change, negative = inhibition was inactive: -8.35%.

`CN(C)CCOC(=O)C(O)(c1ccccc1)C1CCCCC1` (stereo not drawn): the activity change, negative = inhibition is inactive: 26.2%.

In the case of `COc1ccc(OP(C)(=O)Nc2cccc(Br)c2)cc1` (stereo not drawn), the activity change, negative = inhibition is inactive: 27.2%.

Regarding `Cc1c(C(c2ccc3c(c2)OCO3)c2c(C)n(C)n(-c3ccccc3)c2=O)c(=O)n(-c2ccccc2)n1C.O=[N+]([O-])c1cc([N+](=O)[O-])c(O)c([N+](=O)[O-])c1`, the activity change, negative = inhibition is inactive: 40%.

With `Cc1cc(-c2cccc3ccccc23)c(C)cn1.O=[N+]([O-])c1cc([N+](=O)[O-])c(O)c([N+](=O)[O-])c1`, the activity change, negative = inhibition was inactive: 38.4%.

Regarding `O=[N+]([O-])c1ccc(OP2(=O)COCCO2)cc1` (stereo not drawn), the activity change, negative = inhibition was inactive: 7.36%.

Take `COc1ccc(OP(C)(=O)Nc2ccc(SC(F)(F)F)cc2)cc1` (stereo not drawn): the activity change, negative = inhibition is inactive: 54.5%.

`CCOC(=O)c1ccc(NP(C)(=O)Oc2ccc(F)cc2)cc1` (stereo not drawn): the activity change, negative = inhibition is inactive: 31.8%.

Take `CCCCCOc1ccc(NP(C)(=O)Oc2ccc(Cl)cc2Cl)cc1` (stereo not drawn): the activity change, negative = inhibition is inactive: 21.8%.

As to `CP(=O)(Nc1ccccc1)Oc1ccc(F)cc1` (stereo not drawn), the activity change, negative = inhibition is inactive: 17.3%.

Regarding `CCN(CC)CCCOC(=O)C(O)(c1ccccc1)C1CCCCC1` (stereo not drawn), the activity change, negative = inhibition is inactive: 34.6%.

In the case of `Cc1c([N+](=O)[O-])cc([N+](=O)[O-])c(Br)c1[N+](=O)[O-]`, the activity change, negative = inhibition was inactive: 3.91%.

Take `CC(C)c1ccc(OP(C)(=O)Nc2ccc(SC(F)(F)F)cc2)cc1` (stereo not drawn): the activity change, negative = inhibition was inactive: 39.9%.

For the molecule `CP(=O)(Nc1ccccc1F)Oc1ccccc1` (stereo not drawn), the activity change, negative = inhibition was inactive: 39.6%.

Regarding `O=C(OCCN1CCN(CCOCc2ccccc2)CC1)C(O)(c1ccccc1)c1ccccc1`, the activity change, negative = inhibition was inactive: 9.43%.

With `Cc1cc(C)cc(OP(C)(=O)Nc2ccc(C)cc2C)c1` (stereo not drawn), the activity change, negative = inhibition was inactive: 10.6%.

In the case of `CCOC(=O)c1ccc(NP(C)(=O)Oc2cc(C)cc(C)c2)cc1` (stereo not drawn), the activity change, negative = inhibition was inactive: 9.75%.

Regarding `COc1ccccc1OP(C)(=O)Nc1cccc(Br)c1` (stereo not drawn), the activity change, negative = inhibition was inactive: 44.3%.

With `Cc1cc(C)cc(OP(C)(=O)Nc2ccccn2)c1` (stereo not drawn), the activity change, negative = inhibition was inactive: 20.3%.

On to `CP(=O)(Nc1cccc(Br)c1)Oc1ccccc1` (stereo not drawn), for which the activity change, negative = inhibition is inactive: 36.2%.

Take `Cc1ccc(C)c(NP(C)(=O)Oc2ccccc2)c1` (stereo not drawn): the activity change, negative = inhibition was inactive: 21%.

As for `CC1=NCCc2c1[nH]c1ccccc21.O=[N+]([O-])c1cc([N+](=O)[O-])c(O)c([N+](=O)[O-])c1`, the activity change, negative = inhibition is inactive: -5.4%.

In the case of `CC1=C2N=C(C=C3N=C(C(C)=C4[N-][C@@](C)([C@@H]5N=C1[C@](C)(CCC(=O)NC[C@@H](C)OP(=O)([O-])O[C@H]1[C@@H](O)[C@@H](n6cnc7cc(C)c(C)cc76)O[C@@H]1CO)[C@H]5CC(N)=O)[C@@](C)(CC(N)=O)[C@@H]4CCC(N)=O)[C@@](C)(CC(N)=O)[C@@H]3CCC(N)=O)C(C)(C)[C@@H]2CCC(N)=O.[C-]#N.[Co+3]`, the activity change, negative = inhibition was inactive: -0.907%.

Consider `O=[N+]([O-])c1cc([N+](=O)[O-])c(Nc2nnnn2CCO)c([N+](=O)[O-])c1`, for which the activity change, negative = inhibition is inactive: -19.5%.

`CCCOc1ccc(NP(C)(=O)Oc2ccc(Cl)cc2)cc1` (stereo not drawn): the activity change, negative = inhibition is inactive: 0.354%.

For the molecule `CP(=O)(Nc1ccc(SC(F)(F)F)cc1)Oc1ccccc1` (stereo not drawn), the activity change, negative = inhibition is inactive: 10.7%.

For the molecule `COc1ccccc1OP(C)(=O)Nc1c(C)cccc1C` (stereo not drawn), the activity change, negative = inhibition was inactive: 66.7%.

Take `CN1CCCCC1COC(=O)C1(O)c2ccccc2CCc2ccccc21` (stereo not drawn): the activity change, negative = inhibition is inactive: 19.2%.

Source of the values: PubChem BioAssay AID540317 (National Center for Advancing Translational Sciences (NCATS), 2011).
